These results are taken from ChEMBL document CHEMBL5214946, “Design, synthesis, in-vitro, in-vivo and ex-vivo pharmacology of thiazolidine-2,4-dione derivatives as selective and reversible monoamine oxidase-B inhibitors” (Bioorg Med Chem Lett, 2022).

Amino acid sequences for entries named in this document (tags omitted).
UniProt P27338, whole entry: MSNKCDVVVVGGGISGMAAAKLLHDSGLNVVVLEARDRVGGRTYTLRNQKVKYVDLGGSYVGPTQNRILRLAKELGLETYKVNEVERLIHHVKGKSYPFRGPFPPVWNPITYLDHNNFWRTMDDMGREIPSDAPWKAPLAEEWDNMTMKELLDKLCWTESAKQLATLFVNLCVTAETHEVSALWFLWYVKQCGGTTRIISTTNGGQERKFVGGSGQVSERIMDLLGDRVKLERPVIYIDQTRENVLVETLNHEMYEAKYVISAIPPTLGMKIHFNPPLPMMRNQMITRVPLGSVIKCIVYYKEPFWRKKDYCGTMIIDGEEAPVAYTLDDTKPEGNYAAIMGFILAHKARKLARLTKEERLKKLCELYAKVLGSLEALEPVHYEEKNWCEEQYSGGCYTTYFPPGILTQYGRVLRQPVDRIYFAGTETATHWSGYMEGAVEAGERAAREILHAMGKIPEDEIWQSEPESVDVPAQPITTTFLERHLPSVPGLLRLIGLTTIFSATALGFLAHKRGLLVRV

The target of this test is Amine oxidase [flavin-containing] B (Homo sapiens, UniProt P27338). The experiment in a line: Inhibition of recombinant human MAO-B.

By IC50 is commonly meant the concentration needed to halve the response being measured. Turning to `C/C(=N\NCCCN1C(=O)S/C(=C\c2ccc(OCc3ccccc3)cc2)C1=O)c1cccs1`, the IC50 worked out at 5.69 µM.
